Experimental data: paper PMC11310081, “Deep-learning-enabled antibiotic discovery through molecular de-extinction” (Nature Biomedical Engineering, 2024)
Values after ≈ are worked out from the molar mass of the structure shown.

What was measured:
E. coli AIC221 = assay type: cell-based, Escherichia coli; conditions: AIC221, 20 h
From the text: (§1) The following Gram-negative bacteria were used in our study: A. baumannii ATCC 19606, E. coli ATCC 11775, E. coli AIC221 (E. coli MG1655 phnE_2::FRT), E. coli AIC222 (E. coli MG1655 pmrA53 phnE_2::FRT (colistin resistant)), K. pneumoniae ATCC 13883, P. aeruginosa PAO1 and P. aeruginosa PA14. The following Gram-positive bacteria were also used in our study: S. aureus ATCC 12600, S. aureus ATCC BAA-1556 (methicillin-resistant strain), E. faecalis ATCC 700802 (vancomycin-resistant strain) and E. faecium ATCC 700221 (vancomycin-resistant strain). Bacteria were grown from frozen stocks and plated on Luria–Bertani (LB) or Pseudomonas isolation agar plates (P. aeruginosa strains) and incubated overnight at 37 °C. After the incubation period, a single colony was transferred to 5 ml of LB medium, and cultures were incubated overnight (16 h) at 37 °C. The following day, an inoculum was prepared by diluting the overnight cultures 1:100 in 5 ml of the respective media and incubating them at 37 °C until bacteria reached logarithmic phase (OD600 = 0.3–0.5).
(§2) The in vitro antimicrobial activity of the peptides was assessed by using the broth microdilution assay. […] Aqueous solutions of the peptides were added to the plate at concentrations ranging from 1 to 64 μmol l^−1. […] The optical density of the plates was measured at 600 nm using a spectrophotometer. […]

[1] = test system: E. faecium ATCC 700221 (vancomycin-resistant strain); assay type: cell-based, Enterococcus faecium; conditions: ATCC 700221, 20 h
From the text: as §1, §2

A. baumannii ATCC 19606 [2] = experiment: Skin abscess infection mouse model; assay type: in vivo, CD-1 mice; conditions: for bacterial count, skin abscess (Panel 6b): CD-1 mice
Description: A. baumannii ATCC 19606 cells were grown in LB medium to an OD600 = 0.5. Cells were washed twice with sterile phosphate-buffered saline (PBS) (pH 7.4, 13,000 r.p.m. for 2 min) and resuspended to a final concentration of 10^6 (A. baumannii cells) colony-forming units per millilitre (c.f.u. ml^−1). Six-week-old female CD-1 mice from Charles River (stock number 18679700-022) were anaesthetized with isoflurane, and their backs were sterilized and shaved. A superficial linear skin abrasion was made with a needle to damage the stratum corneum and upper layer of the epidermis. An aliquot of 20 μl containing the bacterial load resuspended in PBS was inoculated over the scratched area. Two hours after the infection, peptides diluted in water at their MIC value were administered to the infected area, and the untreated mice were inoculated with the same volume of deionized water. Mice were euthanized, and the area of scarified skin was excised 2 days and 4 days post infection, homogenized using a bead beater for 20 min (25 Hz) and then serially diluted tenfold for quantification of colony-forming units. This quantitative method was used as it has been established to accurately reflect the number of bacteria present in a given infected area. MacConkey agar plates were used as A. baumannii colonies appear purple in this medium and can easily be distinguished from other strains. The experiments were performed with six mice per group. All experiments were performed blindly, and no animal subjects were excluded from the analysis. The skin abscess infection mouse model was approved by the University Laboratory Animal Resources from the University of Pennsylvania (protocol 806763). Statistical significance was determined using one-way analysis of variance (ANOVA) followed by Dunnett’s test in log10-transformed data to mitigate the effect of outliers; P values are presented for each group, with all groups being compared to the untreated control group.

A. baumannii ATCC 19606 [3] = experiment: Neutropenic thigh infection mouse model; assay type: in vivo; conditions: neutropenic CD-1 mice
Description: Six-week-old female CD-1 mice from Charles River (stock number 18679700-022) were rendered neutropenic by two doses of cyclophosphamide (150 mg kg^−1) applied intraperitoneally with an interval of 72 h. One day after the last dose of cyclophosphamide, the mice were injected intramuscularly in their right thigh with a bacterial load of 10^6 c.f.u. ml^−1 of A. baumannii ATCC 19606 cells. The bacteria had been grown in LB broth, washed twice with PBS (pH 7.4), and resuspended to the desired concentration. Two hours after bacterial injection, peptides resuspended in water were administered intraperitoneally, and the untreated mice were inoculated with the same volume of deionized water. Before each injection, mice were anaesthetized with isoflurane and monitored for respiratory rate and pedal reflexes. Next, we monitored the establishment of the infection and euthanized the mice. The infected area was excised 2 days and 4 days post infection, homogenized using a bead beater for 20 min (25 Hz), and then serially diluted tenfold for quantification of colony-forming units in MacConkey agar plates. The experiments were performed with six mice per group. All experiments were performed blindly, and no animal subjects were excluded from the analysis. The thigh infection mouse model was approved by the University Laboratory Animal Resources from the University of Pennsylvania (protocol 807055). Statistical significance was determined using one-way ANOVA followed by Dunnett’s test in log10-transformed data to mitigate the effect of outliers; P values are presented for each group, with all groups being compared to the untreated control group.

[4] = test system: 11 clinically relevant bacterial pathogens; assay type: cell-based
From the text: as §1
The in vitro antimicrobial activity of the peptides was assessed by using the broth microdilution assay. […] Aqueous solutions of the peptides were added to the plate at concentrations ranging from 1 to 64 μmol l^−1. […] The optical density of the plates was measured at 600 nm using a spectrophotometer. All assays were done as three biological replicates.

[5] = A. baumannii ATCC 19606, day 2, replicate 1
[6] = A. baumannii ATCC 19606, day 2, replicate 2
[7] = A. baumannii ATCC 19606, day 2, replicate 3
[8] = A. baumannii ATCC 19606, day 2, replicate 4
[9] = A. baumannii ATCC 19606, day 2, replicate 5
[10] = A. baumannii ATCC 19606, day 2, replicate 6
[11] = A. baumannii ATCC 19606, day 4, replicate 1
[12] = A. baumannii ATCC 19606, day 4, replicate 2
[13] = A. baumannii ATCC 19606, day 4, replicate 3
[14] = A. baumannii ATCC 19606, day 4, replicate 4
[15] = A. baumannii ATCC 19606, day 4, replicate 5
[16] = A. baumannii ATCC 19606, day 4, replicate 6

CC[C@H](C)[C@H](NC(=O)[C@H](CC(N)=O)NC(=O)[C@H](CCCCN)NC(=O)[C@H](CCCNC(=N)N)NC(=O)[C@H](Cc1ccccc1)NC(=O)[C@@H](NC(=O)[C@H](CC(C)C)NC(=O)[C@H](CCCNC(=N)N)NC(=O)[C@H](CCCNC(=N)N)NC(=O)CNC(=O)[C@H](CCCNC(=N)N)NC(=O)[C@H](C)NC(=O)[C@H](CCCNC(=N)N)NC(=O)[C@@H](NC(=O)[C@H](CC(C)C)NC(=O)[C@H](CO)NC(=O)[C@H](Cc1ccc(O)cc1)NC(=O)[C@@H](NC(=O)[C@H](CCCNC(=N)N)NC(=O)[C@H](CS)NC(=O)[C@H](Cc1ccc(O)cc1)NC(=O)[C@@H](N)CC(C)C)[C@@H](C)CC)C(C)C)[C@@H](C)O)C(=O)N[C@@H](CO)C(=O)N[C@@H](CCCCN)C(=O)O [Hydrodamin-1]
Minimal inhibitory concentration, E. coli AIC221 (E. coli AIC221): 16 µM (≈ 47.5 µg/mL) | Minimal inhibitory concentration, E. faecium ATCC700221-VRE [1]: 4 µM (≈ 11.9 µg/mL) | bacterial count, skin abscess (Panel 6b) (A. baumannii ATCC 19606 [2]; [5]): 4e+007 | bacterial count, skin abscess (Panel 6b) (A. baumannii ATCC 19606 [2]; [6]): 2e+007 | bacterial count, skin abscess (Panel 6b) (A. baumannii ATCC 19606 [2]; [7]): 1e+009 | bacterial count, skin abscess (Panel 6b) (A. baumannii ATCC 19606 [2]; [8]): 1e+009 | bacterial count, skin abscess (Panel 6b) (A. baumannii ATCC 19606 [2]; [9]): 4e+008 | bacterial count, skin abscess (Panel 6b) (A. baumannii ATCC 19606 [2]; [10]): 4e+008 | bacterial count, skin abscess (Panel 6b) (A. baumannii ATCC 19606 [2]; [11]): 800000 | bacterial count, skin abscess (Panel 6b) (A. baumannii ATCC 19606 [2]; [12]): 800000 | bacterial count, skin abscess (Panel 6b) (A. baumannii ATCC 19606 [2]; [13]): 1400000 | bacterial count, skin abscess (Panel 6b) (A. baumannii ATCC 19606 [2]; [14]): 600000 | bacterial count, skin abscess (Panel 6b) (A. baumannii ATCC 19606 [2]; [15]): 200000 | bacterial count, skin abscess (Panel 6b) (A. baumannii ATCC 19606 [2]; [16]): 200000 | Anti-infective activity in skin abscess model, in words (A. baumannii ATCC 19606 [2]; single dose at MIC, compared with untreated control and polymyxin B, n = 6): inhibited the proliferation of the infection for up to 4 days after treatment | Reduction of bacterial load, 2 days (A. baumannii ATCC 19606 [2]; skin abscess, mice, single dose at MIC over infected area 2 h after infection, 2 days post infection, n = 6): not active during the first 2 days post infection | Reduction of bacterial load, 4 days (A. baumannii ATCC 19606 [2]; skin abscess, mice, single dose at MIC over infected area, 4 days post infection, n = 6): showed activity by day 4 | bacterial count, thigh infection (Panel 6d) (A. baumannii ATCC 19606 [3]; [5]): 2.0e+008 | bacterial count, thigh infection (Panel 6d) (A. baumannii ATCC 19606 [3]; [6]): 4.0e+009 | bacterial count, thigh infection (Panel 6d) (A. baumannii ATCC 19606 [3]; [7]): 1.0e+010 | bacterial count, thigh infection (Panel 6d) (A. baumannii ATCC 19606 [3]; [8]): 1.4e+010 | bacterial count, thigh infection (Panel 6d) (A. baumannii ATCC 19606 [3]; [9]): 2.0e+008 | bacterial count, thigh infection (Panel 6d) (A. baumannii ATCC 19606 [3]; [10]): 4.0e+008 | bacterial count, thigh infection (Panel 6d) (A. baumannii ATCC 19606 [3]; [11]): 1.2e+007 | bacterial count, thigh infection (Panel 6d) (A. baumannii ATCC 19606 [3]; [12]): 6000000 | bacterial count, thigh infection (Panel 6d) (A. baumannii ATCC 19606 [3]; [13]): 6.0e+007 | bacterial count, thigh infection (Panel 6d) (A. baumannii ATCC 19606 [3]; [14]): 8.0e+007 | bacterial count, thigh infection (Panel 6d) (A. baumannii ATCC 19606 [3]; [15]): 6000000 | bacterial count, thigh infection (Panel 6d) (A. baumannii ATCC 19606 [3]; [16]): 8000000 | Active or Inactive ([4]; Supplementary Dataset 2, against the 11 pathogens tested): Active | MIC (lowest MIC value in the antimicrobial activity assays) ([4]; Supplementary Table 17, lowest MIC among the strains tested): 4 µM (≈ 11.9 µg/mL)
